Compounds with a hit are over-represented: about 0.43% of the library has one in this group of screens.
HCMV NEC inh: inhibitors of HCMV UL50-UL53 interaction, biochemical, HTRF; AID 1918969, 2023; normalized percent inhibition; inhibition, % (no concentration beside the values); HCMV UL50-UL53 nuclear egress complex (human cytomegalovirus); 190,000 tested, 0.15% active; in the data active = inhibition above about 27%, passing the limit was not always enough
GIV Gai3 FP: inhibitors of GIV GBA-motif binding to rat Galpha-i3. P08753. Galpha-i3/FITC-GIV peptide fluorescence polarization, 90 min; hits give low values; scaled: aluminum fluoride 0%, vehicle 100%. percent of control (FP), % (no concentration beside the values). 210,000 compounds, 0.42% hits;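 active = replicate mean at 85% of control or lower, very high polarization wells dropped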;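 also: wells of about 15 µL received 100 nL stock; the first replicate is given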
GIV-Gai FP conf: inhibitors of GIV peptide binding to Galpha-i3, confirmation, biochemical, fluorescence polarization, FITC-GIV peptide, rat Galphai3. shares compounds with GIV Gai3 FP. hits give low values. fluorescence polarization, mP at 100 µM. 580 tested, 38% active;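 active = inhibition score of 15 or more, meaning 100 minus mean polarization as percent of control over three replicates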;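 also: lower mP means peptide displaced from Galphai3 so more inhibition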
GIV Gai AS conf: inhibitors of GIV binding to Galpha-i3, confirmation, orthogonal assay for GIV-Galpha-i inhibitor project, biochemical, AlphaScreen, His-GIV, GST-Galphai3. AlphaScreen counts at 100 µM. 580 tested, 39% active. purified proteins, 90 min; hits give low values. shares compounds with GIV Gai3 FP;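 active = inhibition score at or above a set limit, where the score is 100 minus the three-replicate mean percent of control signal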
Numbers without * were called inactive; x = no result given.

nr	mol	HCMV NEC inh	GIV Gai3 FP
1	O=C1COc2cc(S(=O)(=O)NCc3ccccc3)ccc2N1	x	101.4
2	CCOc1cc(/C=C2\N=C(c3ccc(F)cc3)OC2=O)cc(Br)c1OC(C)=O	-29.9	102.6
3	CCCC(C(=O)O)N1C(=O)/C(=C/c2ccc(C)cc2)SC1=S (configuration not stated)	-16.0	x
4	CCCCC(C(=O)O)N1C(=O)/C(=C/c2cccnc2)SC1=S (configuration not stated)	-44.8	83.3*
5	CCCSc1nnc2c(n1)OC(c1c(OC)ccc3ccccc13)Nc1ccccc1-2 (configuration not stated)	-31.2	112.2
6	CCCSc1nnc2c(n1)OC(c1ccc(F)cc1)Nc1ccccc1-2 (configuration not stated)	-9.5	65.8*
7	CCSc1nnc2c(n1)OC(c1ccc(C)cc1)Nc1ccccc1-2 (configuration not stated)	3.4	91.7
8	CCCSc1nnc2c(n1)OC(c1ccc(OCC(=O)O)cc1)Nc1ccccc1-2 (configuration not stated)	x	102.9
9	CCSc1nnc2c(n1)OC(c1c(OC)ccc3ccccc13)Nc1ccccc1-2 (configuration not stated)	-37.9	-4.5*
10	CCSc1nnc2c(n1)OC(c1ccc(Cl)cc1)Nc1ccccc1-2 (configuration not stated)	-7.1	78.1*
11	O=C1OC(c2ccc3c(c2)CCC3)c2ccccc21 (configuration not stated)	-2.8	x
12	CC(NC(=O)CCCn1c(=O)oc2ccccc21)c1ccc(S(N)(=O)=O)cc1 (configuration not stated)	-30.9	x
13	Cc1cccc(OCC(=O)NC(=S)Nc2ccc(-c3nc4ccccc4o3)cc2)c1	-2.4	131.3
14	CCOc1ccc(C(c2c(C)[nH]n(-c3ccccc3)c2=O)c2c(C)[nH]n(-c3ccccc3)c2=O)cc1OC	28.6	96.1
15	CCOc1cc(C(c2c(C)[nH]n(-c3ccccc3)c2=O)c2c(C)[nH]n(-c3ccccc3)c2=O)ccc1OCc1ccccc1	x	81.7*

nr	GIV-Gai FP conf	GIV Gai AS conf
1	x	x
2	x	x
3	x	x
4	71.8	35991
5	x	x
6	81.7	31445
7	x	x
8	x	x
9	62.1	32956*
10	76	28223
11	x	x
12	x	x
13	x	x
14	x	x
15	57.9*	37780

Shown with values under each structure: 3 of the compounds above.
The line under a structure holds: HCMV NEC inh	GIV Gai3 FP	GIV-Gai FP conf	GIV Gai AS conf
13: Cc1cccc(OCC(=O)NC(=S)Nc2ccc(-c3nc4ccccc4o3)cc2)c1
    -2.4	131.3	x	x
14: CCOc1ccc(C(c2c(C)[nH]n(-c3ccccc3)c2=O)c2c(C)[nH]n(-c3ccccc3)c2=O)cc1OC
    28.6	96.1	x	x
15: CCOc1cc(C(c2c(C)[nH]n(-c3ccccc3)c2=O)c2c(C)[nH]n(-c3ccccc3)c2=O)ccc1OCc1ccccc1
    x	81.7*	57.9*	37780

The list continues.
nr	mol	HCMV NEC inh	GIV Gai3 FP
16	CCOc1cc(C(c2c(C)[nH]n(-c3ccccc3)c2=O)c2c(C)[nH]n(-c3ccccc3)c2=O)ccc1OC	x	69.5*
17	Cc1[nH]n(-c2ccccc2)c(=O)c1C(c1ccccc1OCc1ccccc1)c1c(C)[nH]n(-c2ccccc2)c1=O	x	107.0
18	COc1cc2c(cc1OC)CN(CC(N)=O)CC2	-7.3	x
19	COc1cc2c(cc1OC)CN(CCC(=O)O)CC2	x	91.7
20	Cc1cccn2c(=O)cc(COc3cccc(NC(=O)COc4ccccc4)c3)nc12	x	94.5
21	Cc1cccn2c(=O)cc(COc3cccc(NC(=O)COc4ccc(F)cc4)c3)nc12	x	99.5
22	CSc1ccccc1NC(=O)c1ccc(N2CC3CC(C2)c2cccc(=O)n2C3)c(NC(=O)c2c(F)cccc2F)c1 (configuration not stated)	x	107.8
23	Cc1ccc(N2C(=O)/C(=C\c3ccc(C(C)C)cc3)C3=C2C(=O)N(c2ccc(C)cc2)C3c2ccccc2)cc1 (configuration not stated)	x	85.3*
24	COc1ccccc1/C=C1\C(=O)N(c2ccc(C)cc2)C2=C1C(c1ccccc1)N(c1ccc(C)cc1)C2=O (configuration not stated)	x	100.3
25	CC1=C(C(=O)c2ccccc2)CC(C(=O)c2ccccc2)=C(C)N1	-10.8	x
26	O=C(NCCCO)Nc1ccc2nc(-c3ccco3)c(-c3ccco3)nc2c1	1.1	80.8*
27	O=C(Nc1ccc(N2CCOCC2)cc1)Nc1ccc2nc(-c3ccco3)c(-c3ccco3)nc2c1	-37.9	97.0
28	COc1ccc(-n2c(=S)[nH]c3cc(C(=O)NCc4cccc(Cl)c4)ccc3c2=O)cc1OC	x	110.4
29	COc1ccc(-n2c3nc(=O)[nH]c(=O)c-3cc3ccccc32)cc1	x	71.1*
30	Cc1ccc(-n2c3nc(=O)[nH]c(=O)c-3cc3ccccc32)cc1Cl	x	104.6

nr	GIV-Gai FP conf	GIV Gai AS conf
16	61	9976*
17	x	x
18	x	x
19	66.6	39813
20	78.8	34512
21	x	x
22	x	x
23	69.5	46540
24	x	x
25	x	x
26	57.7*	1698*
27	x	x
28	x	x
29	64.5	8986*
30	x	x

(further entries)
nr	mol	HCMV NEC inh	GIV Gai3 FP
31	Cc1c(C)n(C(=O)CN2CCN(c3ccc(F)cc3)CC2)c2ccccc12	-5.8	103.6
32	CCN(C(=O)Cn1ncc2c(=O)oc3ccccc3c21)c1cc(OC)ccc1OC	4.2	86.5
33	CCOc1ccccc1N(CC)C(=O)Cn1ncc2c(=O)oc3ccccc3c21	-8.0	100.2
34	CSc1nnc2c(n1)OC(c1cccs1)Nc1ccccc1-2 (configuration not stated)	-37.2	53.0*
35	COc1ccc(C2Nc3ccccc3-c3nnc(SC)nc3O2)cc1C (configuration not stated)	-36.8	36.0*
36	CCCSc1nnc2c(n1)OC(c1cccs1)Nc1ccccc1-2 (configuration not stated)	-30.9	102.7
37	COc1cc(C2Nc3ccccc3-c3nnc(SC)nc3O2)cc(Br)c1O (configuration not stated)	-50.9	105.2
38	CCn1c(C(C)O)nc2ccccc21 (configuration not stated)	-0.3	106.9
39	O=C(COc1ccccc1)Nc1ccn(Cc2ccccc2)n1	-35.8	108.0
40	COc1ccc(S(=O)(=O)Nc2ccc3c(c2)c2c(n3S(=O)(=O)c3ccc(OC)cc3)CCC2)cc1	x	109.9
41	CCCn1c(=S)[nH]c2cc(C(=O)N3CCC(O)(c4cccc(C(F)(F)F)c4)CC3)ccc2c1=O	x	102.8
42	CN(C)/C=C/C=C/c1cc(=O)cc(/C=C/C=C/N(C)C)o1	66.9*	5.8*
43	Cc1nc(N(C)C)cc(N2CCN(C(=O)Nc3ccc(F)cc3)CC2)n1	-11.1	97.1
44	O=C1CCCC(O)=C1C1=NC2(CCCCCC2)Cc2ccccc21	x	102.9
45	O=C1CCCC(O)=C1C1(O)C(=O)c2ccccc2C1=O	74.4*	62.1*

nr	GIV-Gai FP conf	GIV Gai AS conf
31	x	x
32	65.1	47620
33	x	x
34	61.4	27085*
35	81.5	27274
36	x	x
37	x	x
38	x	x
39	x	x
40	x	x
41	x	x
42	25.3*	2403*
43	x	x
44	x	x
45	56*	55998

Next results
nr	mol	HCMV NEC inh	GIV Gai3 FP
46	Cc1cccc(NC(=O)C(F)(F)C(F)(F)C(F)(F)F)n1	3.7	65.3*
47	Cc1cccc(NC(=O)c2ccco2)n1	-9.4	107.9
48	Cn1c(=O)c(=O)n(C)c2cc(Oc3ccccc3)c(NS(=O)(=O)c3cccc4nsnc34)cc21	-59.0	98.1
49	N#CCSc1nc(N)c(C#N)c(-c2cccs2)c1C#N	-3.6	x
50	c1ccc(COn2c3c(c4c5nonc5ccc42)CCCC3)cc1	-33.8	52.0*
51	CCOC(=O)c1c(C)n(OCc2ccccc2)c2ccc3nonc3c12	x	99.3
52	Cc1ccc(C(=O)Nc2cccc(/C=N/N3CCOCC3)c2)cc1	-32.5	x

nr	GIV-Gai FP conf	GIV Gai AS conf
46	77.5	31955
47	x	x
48	x	x
49	x	x
50	48.7*	18180*
51	x	x
52	x	x
